Test results as given in US20240051952A1, “HMOX1 INDUCERS” (Mitobridge Inc., priority 2019, published 2024).

Assay: Kinetic solubility
Assay type: physicochemical
Conditions: DPBS pH 7.4, 25° C., 16 h, 200 μM test compound
Procedure: 10 μL of 10 mM DMSO stock solution were aliquotted to 490 μL of DMSO solution and separately 490 μL of Dulbecco's phosphate buffer saline, DPBS, pH 7.4 solution in 1.2 mL 96-well plates in duplicate. Final concentration was 200 μM of the test compound. Samples were incubated at 25° C. with shaking at 200 rpm for 16 h. Samples were centrifuged at 3500 rpm for 20 min at 25° C., and supernatant was submitted for HPLC analysis.
Kinetic solubility was measured using the following equation: […]

Compound | Solubility
CCn1c(Nc2nc3ccc(OC(F)(F)F)cc3o2)nc2cc(C(=O)NCCOC)ccc21 [Example 85, 1-ethyl-N-(2-methoxyethyl)-2-((6-(trifluoromethoxy)benzo[d]oxazol-2-yl)amino)-1H-benzo[d]imidazole-5-carboxamide] | 3.3 µM (≈ 1.53 µg/mL)
COCCNC(=O)c1ccc2c(c1)nc(Nc1nc3ccc(OC(F)(F)F)cc3o1)n2CC1CCOC1 (centres unmarked) [Example 88, N-(2-methoxyethyl)-1-((tetrahydrofuran-3-yl)methyl)-2-((6-(trifluoromethoxy)benzo[d]oxazol-2-yl)amino)-1H-benzo[d]imidazole-5-carboxamide] | 3.9 µM (≈ 2.03 µg/mL)

In brackets after ≈: the same amount, converted by molar mass.
